# Columns and labels:
# [1] = molecular target: DPPIV (Homo sapiens, UniProt P27487); assay: Inhibition of peptidase activity of purified DPPIV, substrate H-Gly-Pro-pNA; type: biochemical; design: His tag; made in house; host or cells: transfected COS-7 cells; solubilised with 1% Triton X-100; details: inhibitor 4 mM; 1 mM H-Gly-Pro-pNA, pH 7.4
# Experimental: (§1) Cells (1×10^7) expressing each protein were sonicated in native buffer (50 mM sodium phosphate, 300 mM NaCl), then treated with 700 U DNAse for 20 min at room temperature. DPPIV is expressed at the cell surface, so 1% Triton X-100 was used to solubilize DPPIV/V5/His. Insoluble material was removed by centrifugation. The supernatant was incubated with 1 mL Talon® Metal Affinity Resin (Clontech) following the manufacturer's instructions for a batch/gravity flow procedure. The resin was washed with 50 mM sodium phosphate, containing 300 mM NaCl and 5 mM imidazole, and proteins were eluted using the same buffer containing 150 mM imidazole. Enzyme activity was used to monitor eluted fractions.
# Enzyme assays were performed as described previously. Either clarified cell extract from 1×10^4 sonicated COS-7 cells or purified protein derived from 1×10^5 cells was incubated with substrate in 70 μL phosphate buffer, pH 7.4, for 30 min at 37° C., except where otherwise indicated. The specific DPPIV substrates, Gly-Pro-toluenesulfonate, H-Gly-Pro-p-nitroanilide (NA)/HCl (Sigma, St Louis, Mo., USA) and Gly-Pro-7-amino-4-trifluromethylcoumarin (Calbiochem, San Diego, Calif., USA) were tested. […]
# [2] = molecular target: DPP8 (Homo sapiens, UniProt Q6V1X1); assay: Inhibition of peptidase activity of purified DPP8, substrate H-Ala-Pro-pNA; type: biochemical; design: the full length DPP8 cDNA of 3.1 kb was cloned into the Xba I site of pcDNA3.1A/V5/His expression vector; His tag (C); made in house; host or cells: COS-7 cells, stably transfected; details: for Residual activity (% of control): inhibitor 4 mM, 1 mM H-Ala-Pro-pNA, pH 7.4
# Experimental: as §1
# Enzyme assays were performed as described previously. Either clarified cell extract from 1×10^4 sonicated COS-7 cells or purified protein derived from 1×10^5 cells was incubated with substrate in 70 μL phosphate buffer, pH 7.4, for 30 min at 37° C., except where otherwise indicated. The specific DPPIV substrates, Gly-Pro-toluenesulfonate, H-Gly-Pro-p-nitroanilide (NA)/HCl (Sigma, St Louis, Mo., USA) and Gly-Pro-7-amino-4-trifluromethylcoumarin (Calbiochem, San Diego, Calif., USA) were tested. Other substrates tested were H-Ala-Pro-pNA/HCl, H-Arg-Pro-pNA acetate salt, H-Lys-Ala-pNA.2HCl, H-Asp-Pro-pNA, H-Ala-Ala-pNA/HCl, H-Ala-Ala-Pro-pNA/HCl, H-Ala-Ala-Phe-pNA, succinyl-Ala-Pro-pNA, H-Ala-Phe-Pro-pNA and Z-Ala-Pro-p-NA from Bachem (Switzerland). H-Ala-Pro-4-methoxyβNA/HCl, Z-Lys-Pro-4-methoxyβNAformate salt, H-Lys-Pro-4-methoxyβNA/HCl, Z-Ala-Pro-4-methoxyβNA, H-Gly-Pro-βNA and H-His-Ser-4-methoxyβNAacetate salt (Bachem) were tested for their ability to stain unfixed transfected cells. All inhibitors were (see Table 2) incubated with each purified enzyme in phosphate buffer, pH 7.4, for 15 min before the addition of substrate. After the addition of 1 mM H-Ala-Pro-pNA substrate for purified DPP8 and 1 mM H-Gly-Pro-pNA substrate for purified DPPIV, samples were incubated for 60 min at 37° C. All enzyme assays were performed in triplicate.
Residual activity (% of control) [1],Inhibition of DPP8 enzyme activity (in words) ([2]; purified DPP8),Molecule,Residual activity (% of control) [2]
45 % of control,probably competitively inhibited,H-Lys-Pro-OH HCl salt (KP) [peptide that mimics DPP8 substrates],63 % of control
–,–,"NCCc1ccc(S(=O)(=O)F)cc1 [AEBSF, 4-(2-aminoethyl)benzenesulfonylfluoride]",40 % of control

# Source: patent US7148338B2, “Nucleic acids encoding dipeptidyl peptidases” (The University of Sydney, priority 1999, dated 2006)
